Reference: ChEMBL document CHEMBL5728058, “3-(carboxymethyl)-8-amino-2-oxo-1,3-diaza-spiro-[4.5]-decane derivatives” (2020)
Several values for one entry are separate records, joined by “and”; a condition that tells them apart may be missing. Identical values can stand only once.

By UniProt entry, the sequences of proteins in these tests, tags left out. Where a name states a change or a piece, a line headed by the entry shows the natural chain unless it says otherwise.
UniProt P35372, whole entry, looked up: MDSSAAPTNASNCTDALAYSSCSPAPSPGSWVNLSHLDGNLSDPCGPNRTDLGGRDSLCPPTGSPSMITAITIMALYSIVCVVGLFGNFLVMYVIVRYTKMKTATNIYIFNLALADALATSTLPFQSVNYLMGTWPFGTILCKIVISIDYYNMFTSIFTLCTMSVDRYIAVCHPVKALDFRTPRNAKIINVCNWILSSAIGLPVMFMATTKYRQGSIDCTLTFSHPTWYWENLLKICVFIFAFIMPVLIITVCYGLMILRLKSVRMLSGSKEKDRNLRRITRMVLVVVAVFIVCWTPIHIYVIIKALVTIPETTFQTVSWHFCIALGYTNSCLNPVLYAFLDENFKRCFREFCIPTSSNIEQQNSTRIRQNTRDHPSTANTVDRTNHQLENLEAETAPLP
UniProt P41146: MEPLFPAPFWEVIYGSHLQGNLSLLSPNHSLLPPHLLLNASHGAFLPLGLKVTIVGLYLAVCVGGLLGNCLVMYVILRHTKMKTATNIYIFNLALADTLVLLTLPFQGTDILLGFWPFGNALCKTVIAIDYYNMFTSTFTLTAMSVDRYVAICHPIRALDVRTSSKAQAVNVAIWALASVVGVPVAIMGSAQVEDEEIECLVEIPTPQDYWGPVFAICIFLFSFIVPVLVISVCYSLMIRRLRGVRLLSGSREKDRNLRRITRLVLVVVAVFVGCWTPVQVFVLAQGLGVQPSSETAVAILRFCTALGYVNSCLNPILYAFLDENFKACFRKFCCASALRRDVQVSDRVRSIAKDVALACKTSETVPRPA

The molecules below were run against Mu-type opioid receptor (Homo sapiens, UniProt P35372) (assay: Human Mu-Opioid Peptide (hMOP) Receptor Binding Assay: The hMOP receptor binding assay was performed as homogeneous SPA-assay (scintillation proximity assay) using the assay buffer 50 mM TRIS-HCl (pH 7.4) supplemented with 0.052 mg/ml bovine serum albumin (Sigma-Aldrich Co., St. Louis, Mo.). The final assay volume (250 μl/well) included 1 nM of [N-allyl-2,3-3H]naloxone as ligand (PerkinElmer Life).

Row | SMILES | Ki
1 | CN(C)[C@]1(c2ccccc2)CC[C@]2(CC1)CN(CC(=O)NCc1ccnnc1)C(=O)N2CC1CCC1 | 19.5 nM
2 | CN(C)[C@]1(c2ccccc2)CC[C@]2(CC1)CN(CC(=O)Nc1cccc(C#N)n1)C(=O)N2CC1CCC1 | 67.3 nM
3 | COc1nccc(NC(=O)CN2C[C@]3(CC[C@](c4ccccc4)(N(C)C)CC3)N(CC3CCC3)C2=O)n1 | 45 nM
4 | COCCCN1C(=O)N(CC(=O)Nc2ccncn2)C[C@]12CC[C@](c1ccccc1)(N(C)C)CC2 | 150 nM
5 | CNC(=O)c1cccc(NC(=O)CN2C[C@]3(CC[C@](c4ccccc4)(N(C)C)CC3)N(CC3CCC3)C2=O)n1 | 140 nM
6 | Cc1ccnc(NC(=O)CN2C[C@]3(CC[C@](c4ccccc4)(N(C)C)CC3)N(CC3CCC3)C2=O)c1 | 54 nM
7 | CN(C)[C@]1(c2ccccc2)CC[C@]2(CC1)CN(CC(=O)NCC(N)=O)C(=O)N2CC1(C)CCC1 | 72.5 nM
8 | CN(C)[C@]1(c2ccccc2)CC[C@]2(CC1)CN(CC(=O)Nc1cnc(O)nc1)C(=O)N2CC1CCC1 | 31.5 nM
9 | CN(C)[C@]1(c2ccccc2)CC[C@]2(CC1)CN(CC(=O)NCC1CCS(=O)(=O)CC1)C(=O)N2CC1CCC1 | 25 nM
10 | CN(C)[C@]1(c2ccccc2)CC[C@]2(CC1)CN(CC(=O)Nc1ccc(F)cn1)C(=O)N2CC1CCC1 | 43 nM
11 | CN(C)[C@]1(c2ccccc2)CC[C@]2(CC1)CN(CC(=O)Nc1ccc(O)cn1)C(=O)N2CC1CCC1 | 30 nM
12 | CC(=O)NCCNC(=O)CN1C[C@]2(CC[C@](c3ccccc3)(N(C)C)CC2)N(CC2CCC2)C1=O | 37.7 nM
13 | CN(CC(N)=O)C(=O)CN1C[C@]2(CC[C@](c3ccccc3)(N(C)C)CC2)N(CC2CCC2)C1=O | 34.2 nM and 83.5 nM
14 | CN(C)[C@]1(c2ccccc2)CC[C@]2(CC1)CN(CC(=O)Nc1cnc(C#N)nc1)C(=O)N2CC1CCC1 | 19.5 nM
15 | COc1ccncc1CNC(=O)CN1C[C@]2(CC[C@](c3ccccc3)(N(C)C)CC2)N(CC2CCC2)C1=O | 4.5 nM
16 | COc1ccc(NC(=O)CN2C[C@]3(CC[C@](c4ccccc4)(N(C)C)CC3)N(CC3CCC3)C2=O)cn1 | 34.5 nM
17 | CN(C)[C@]1(c2ccccc2)CC[C@]2(CC1)CN(CC(=O)N1CC[C@H](O)[C@@H](O)C1)C(=O)N2CC1CCC1 | 78 nM
18 | CN(C)[C@]1(c2ccccc2)CC[C@]2(CC1)CN(CC(=O)NCC#N)C(=O)N2CC1CCC1 | 18.7 nM
19 | CN(C)[C@]1(c2ccccc2)CC[C@]2(CC1)CN(CC(=O)N1CCC(C(N)=O)CC1)C(=O)N2CC1CC1 | 240 nM
20 | CN(C)[C@]1(c2ccccc2)CC[C@]2(CC1)CN(CC(=O)Nc1ccnc(C#N)n1)C(=O)N2CC1CCC1 | 72 nM

Row | SMILES | Ki
21 | CN(C)[C@]1(c2ccccc2)CC[C@]2(CC1)CN(CC(=O)NCc1ncccn1)C(=O)N2CC1CCC1 | 26.5 nM
22 | COCCOCCNC(=O)CN1C[C@]2(CC[C@](c3ccccc3)(N(C)C)CC2)N(CC2CCC2)C1=O | 12.5 nM
23 | CN(C)[C@]1(c2ccccc2)CC[C@]2(CC1)CN(CC(=O)N1CCOCC1)C(=O)N2CC1CCC1 | 51 nM
24 | COc1ccnc(NC(=O)CN2C[C@]3(CC[C@](c4ccccc4)(N(C)C)CC3)N(CC3CCC3)C2=O)c1 | 175 nM and 74.5 nM
25 | CCOC(=O)CN1C[C@]2(CC[C@](c3ccccc3)(N(C)C)CC2)N(CC2CCC2)C1=O | 38.5 nM
26 | CNC(=O)C(C)(C)NC(=O)CN1C[C@]2(CC[C@](c3ccccc3)(N(C)C)CC2)N(CC2CCC2)C1=O | 118 nM
27 | COCCOCCOCCOCCOCCOCCOCCNC(=O)CN1C[C@]2(CC[C@](c3ccccc3)(N(C)C)CC2)N(CC2CCC2)C1=O | 206 nM and 230 nM
28 | CN(C)[C@]1(c2ccccc2)CC[C@]2(CC1)CN(CC(=O)N1CCC(S(C)(=O)=O)CC1)C(=O)N2CC1CC1 | 205 nM
29 | COc1cccc(NC(=O)CN2C[C@]3(CC[C@](c4ccccc4)(N(C)C)CC3)N(CC3CCC3)C2=O)n1 | 220 nM
30 | CN(C)[C@]1(c2ccccc2)CC[C@]2(CC1)CN(CC(=O)NC1(C#N)CC1)C(=O)N2CC1CCC1 | 86 nM
31 | CN[C@]1(c2ccccc2)CC[C@]2(CC1)CN(CC(=O)NCC(N)=O)C(=O)N2CC1CCC1 | 410 nM
32 | CN(C)[C@]1(c2ccccc2)CC[C@]2(CC1)C(=O)N(CC(=O)N1CCS(=O)(=O)CC1)C(=O)N2CC1(O)CCC1 | 38 nM
33 | COCCOCCOCCNC(=O)CN1C[C@]2(CC[C@](c3ccccc3)(N(C)C)CC2)N(CC2CCC2)C1=O | 25.5 nM
34 | CN(C)[C@]1(c2ccccc2)CC[C@]2(CC1)CN(CC(=O)N1C[C@H](O)[C@@H](O)C1)C(=O)N2CC1CCC1 | 45 nM
35 | CN(CC(N)=O)C(=O)CN1C[C@]2(CC[C@](c3ccccc3)(N(C)C)CC2)N(CC2CC2)C1=O | 300 nM
36 | CN(C)[C@]1(c2ccccc2)CC[C@]2(CC1)CN(CC(=O)NCc1ncco1)C(=O)N2CC1CCC1 | 11 nM
37 | CN(C)[C@]1(c2ccccc2)CC[C@]2(CC1)CN(CC(=O)N1CCC(C)(O)CC1)C(=O)N2CC1(O)CCC1 | 325 nM
38 | CN(C)[C@]1(c2ccccc2)CC[C@]2(CC1)CN(CC(=O)Nc1cccc(O)n1)C(=O)N2CC1CCC1 | 23 nM
39 | CN[C@]1(c2ccccc2)CC[C@]2(CC1)CN(CC(=O)N(C)CC(N)=O)C(=O)N2CC1CCC1 | 140 nM
40 | COc1cnccc1NC(=O)CN1C[C@]2(CC[C@](c3ccccc3)(N(C)C)CC2)N(CC2CCC2)C1=O | 43.5 nM

Row | SMILES | Ki
41 | CCN(C)[C@]1(c2ccccc2)CC[C@]2(CC1)CN(CC(=O)NCC(N)=O)C(=O)N2CC1CCC1 | 390 nM
42 | CNC(=O)CNC(=O)CN1C[C@]2(CC[C@](c3ccccc3)(N(C)C)CC2)N(CC2CCC2)C1=O | 21.2 nM and 63 nM
43 | CN(C)[C@]1(c2ccccc2)CC[C@]2(CC1)CN(CC(=O)NCCOCCO)C(=O)N2CC1CCC1 | 51 nM
44 | CN(C)[C@]1(c2ccccc2)CC[C@]2(CC1)CN(CC(=O)NC1CC1)C(=O)N2CC1CCC1 | 12.6 nM
45 | Cc1ncccc1CNC(=O)CN1C[C@]2(CC[C@](c3ccccc3)(N(C)C)CC2)N(CC2CCC2)C1=O | 15 nM
46 | CN(C)[C@]1(c2ccccc2)CC[C@]2(CC1)CN(CC(=O)NCC(N)=O)C(=O)N2CC1CC1 | 125 nM
47 | CCN(C)[C@]1(c2ccccc2)CC[C@]2(CC1)CN(CC(=O)Nc1cccc(OC)n1)C(=O)N2CC1CCC1 | 680 nM
48 | CCN[C@]1(c2ccccc2)CC[C@@]2(CC1)CN(CC(=O)N1CCS(=O)(=O)CC1)C(=O)N2 | 625 nM
49 | Cc1cnc(NC(=O)CN2C[C@]3(CC[C@](c4ccccc4)(N(C)C)CC3)N(CC3CCC3)C2=O)cn1 | 39 nM
50 | CN(C)[C@]1(c2ccccc2)CC[C@]2(CC1)CN(CC(=O)Nc1ncccc1C#N)C(=O)N2CC1CCC1 | 20.5 nM
51 | CN(C)[C@]1(c2ccccc2)CC[C@]2(CC1)CN(CC(=O)Nc1ccon1)C(=O)N2CC1CCC1 | 59 nM
52 | CN(CCO)C(=O)CN1C[C@]2(CC[C@](c3ccc(F)cc3)(N(C)C)CC2)N(CC2CCC2)C1=O | 260 nM
53 | CN(C)[C@]1(c2ccccc2)CC[C@]2(CC1)CN(CC(=O)N1CCCC(O)C1)C(=O)N2CC1CCC1 (some centres undefined) | 22 nM
54 | CN(C)[C@]1(c2ccccc2)CC[C@]2(CC1)CN(CC(=O)N1CCS(=O)(=O)CC1)C(=O)N2CC1CCC1 | 30 nM and 56.7 nM
55 | CN(C)[C@]1(c2ccccc2)CC[C@]2(CC1)CN(CC(=O)Nc1ncccc1F)C(=O)N2CC1CCC1 | 45 nM
56 | CN(C)[C@]1(c2ccccc2)CC[C@]2(CC1)CN(CC(=O)N1CCNC(=O)C1)C(=O)N2CC1CCC1 | 38 nM
57 | COc1ccc(NC(=O)CN2C[C@]3(CC[C@](c4ccccc4)(N(C)C)CC3)N(CC3CCC3)C2=O)nn1 | 48.5 nM
58 | CN(C(=O)CN1C[C@]2(CC[C@](c3ccccc3)(N(C)C)CC2)N(CC2CCC2)C1=O)C(C)(C)C(N)=O | 190 nM

The molecules below were run against Nociceptin receptor (Homo sapiens, UniProt P41146) (assay: Human Nociceptin/Orphanin FQ Peptide (hNOP) Receptor Binding Assay: The hNOP receptor binding assay was performed as homogeneous SPA-assay (scintillation proximity assay) using the assay buffer 50 mM TRIS-HCl, 10 mM MgCl2, 1 mM EDTA (pH 7.4). The final assay volume (250 μl/well) included 0.5 nM of [leucyl-3H]nociceptin as ligand (PerkinElmer Life Sciences, Inc. Boston, Mass., USA), and either test).

Row | SMILES | Ki
59 | CN(C)[C@]1(c2ccccc2)CC[C@]2(CC1)CN(CC(=O)N1C[C@@H](O)[C@@H](O)C1)C(=O)N2CC1CCC1 | 5.1 nM and 4.5 nM
60 | CN(CCO)C(=O)CN1C[C@]2(CC[C@](c3ccccc3)(N(C)C)CC2)NC1=O | 465 nM
61 | CN(C)[C@]1(c2ccccc2)CC[C@]2(CC1)CN(CC(=O)NCc1cnco1)C(=O)N2CC1CCC1 | 3.3 nM
62 | CN(C)[C@]1(c2ccccc2)CC[C@]2(CC1)CN(CC(=O)N1CCOC(CO)C1)C(=O)N2CC1CCC1 (some centres undefined) | 3.2 nM
63 | CNC(=O)CN1C[C@]2(CC[C@](c3ccccc3)(N(C)C)CC2)N(CC(C)C)C1=O | 15.3 nM
64 | CN(C)[C@]1(c2ccccc2)CC[C@]2(CC1)CN(CC(=O)N1CCC[C@H]1C(N)=O)C(=O)N2CC1CCC1 | 5.2 nM
65 | CN(C)[C@]1(c2ccccc2)CC[C@]2(CC1)CN(CC(=O)NCCO)C(=O)N2CC1CCC1 | 1.8 nM and 4.9 nM
66 | CN(CC(N)=O)C(=O)CN1C[C@]2(CC[C@](c3ccccc3)(N(C)C)CC2)NC1=O | 230 nM
67 | CN(C)CCNC(=O)CN1C[C@]2(CC[C@](c3ccccc3)(N(C)C)CC2)N(CC2CCC2)C1=O | 4.6 nM
68 | COCCCN1C(=O)N(CC(=O)Nc2cccc(OC)n2)C[C@]12CC[C@](c1ccccc1)(N(C)C)CC2 | 9.1 nM
69 | CN[C@]1(c2ccccc2)CC[C@]2(CC1)CN(CC(=O)N(C)CCO)C(=O)N2 | 1140 nM
70 | CN(C)[C@]1(c2ccccc2)CC[C@]2(CC1)CN(CC(=O)NC1COC1)C(=O)N2CC1(O)CCC1 | 23 nM
71 | COCCOCCOCCOCCOCCOCCOCCOCCNC(=O)CN1C[C@]2(CC[C@](c3ccccc3)(N(C)C)CC2)N(CC2CCC2)C1=O | 68.5 nM
72 | CN(C)[C@]1(c2ccccc2)CC[C@]2(CC1)CN(CC(=O)Nc1ccccc1)C(=O)N2 | 52 nM
73 | CN(C)[C@]1(c2ccccc2)CC[C@@]2(CC1)CN(CC(=O)N1CCS(=O)(=O)CC1)C(=O)N2CC1CC1 | 160 nM
74 | CN(C)[C@]1(c2ccccc2)CC[C@]2(CC1)CN(CC(=O)Nc1cncnc1)C(=O)N2CC1(O)CCC1 | 5.8 nM
75 | COc1ncc(CNC(=O)CN2C[C@]3(CC[C@](c4ccccc4)(N(C)C)CC3)N(CC3CCC3)C2=O)cn1 | 3.5 nM
76 | CNC(=O)CNC(=O)CN1C[C@]2(CC[C@@](NC)(c3ccccc3)CC2)N(CC2CCC2)C1=O | 34.5 nM
77 | CN(C)[C@]1(c2ccccc2)CC[C@]2(CC1)CN(CC(=O)Nc1ccccn1)C(=O)N2CC1(O)CCC1 | 12.5 nM
78 | COCCCN1C(=O)N(CC(=O)NCCC#N)C[C@]12CC[C@](c1ccccc1)(N(C)C)CC2 | 70.5 nM
79 | CN[C@]1(c2ccccc2)CC[C@]2(CC1)CN(CC(=O)N(C)CC(N)=O)C(=O)N2 | 1110 nM
